Reference: US12704502B2, “Methods and systems for determining metabolic poise and capacity of living cells” (AGILENT TECHNOLOGIES, INC., priority 2021, dated 2026)

Test system: Human Peripheral Blood NK cells
Experiment: Bioenergetic profile of unstimulated or IL-2 stimulated and expanded NK cells (Seahorse XF)
Type: cell-based
Conditions: IL-2 1000 U/mL, 14 days of expansion; FIGS. 13A-13E
Experimental: The bioenergetic profile of unstimulated human peripheral blood NK cells or NK cells from the same donor stimulated with IL-2 and expanded in cell culture medium during 14 days was also determined. As described in Example 2, bioenergetic poise was calculated as the proportion of ATP generated by glycolysis to oxidative phosphorylation, while the reserve capacity or the bioenergetic capacity was calculated as the level of increase in glycolytic and mitochondrial activity that the cell can affect in response to an increase in energy demand.
The total bioenergetic capacity of unstimulated or expanded human peripheral blood NK cells (Stem Cell Technologies, Cat. No. 70036) was measured as described herein. NK cells were thawed and resuspended at 1×10^6 cells/mL and incubated overnight in RPMI supplemented with 2 mM glutamine, 10% FBS 37C in a 5% CO2 incubator or stimulated with IL-2 (1000 U/mL) and cultured during 14 days adjusting every 3 days cell density to 1×10^6 cells/mL. […] The basal ATP production rate, the compensatory glycolytic capacity, the total bioenergetic capacity, the mitochondrial bioenergetic capacity, and the spare respiratory capacity were calculated. […] (FIGS. 13A-13E)

IL-2: interleukin used to stimulate and expand NK cells (1000 U/mL)
basal ATP production and bioenergetic capacity versus unstimulated NK cells: higher basal ATP production and bioenergetic capacity
